Target: MDR (Rattus norvegicus, UniProt P16257)
Experiment: MDR receptor binding assay ([3H]PK11195 displacement)
Settings: read-out: MDR IC50; 50% inhibition of [3H]PK11195 (2 nM) binding; crude mitochondria fraction from rat cerebral cortex; 4° C., 90 minutes

Sequences of proteins named here, by UniProt entry; tags and fusion partners are left off.
UniProt P16257, whole entry: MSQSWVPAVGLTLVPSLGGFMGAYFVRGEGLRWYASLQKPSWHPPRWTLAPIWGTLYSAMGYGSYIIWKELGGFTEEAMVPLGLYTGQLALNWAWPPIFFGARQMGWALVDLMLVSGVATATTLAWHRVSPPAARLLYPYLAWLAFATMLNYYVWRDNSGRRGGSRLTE

IC50: 0.87 nM
Structure (SMILES): COc1ccccc1CN(C(C)=O)c1ccc(C)cc1Oc1ccccc1
